Results taken from PubChem BioAssay AID624246 (National Center for Advancing Translational Sciences (NCATS), 2012).
The list shows a part of the results, in another mix than the full data. The source made the active and inactive calls. The call rests on the fitted dose curve; in most records, active means well fitted inhibition curve with a large enough effect in the polarisation, with a control signal flat; inconclusive means small, poorly fitted or top-dose-only effect, or effect the other way, or a change in a side signal; inactive means no such curve, though single readings can be large or run the other way; the % refers to the polarisation.

The chains behind the UniProt entries cited, without tags or fusion partners. Where a name states a change or a piece, a line headed by the entry shows the natural chain unless it says otherwise.
UniProt P11308: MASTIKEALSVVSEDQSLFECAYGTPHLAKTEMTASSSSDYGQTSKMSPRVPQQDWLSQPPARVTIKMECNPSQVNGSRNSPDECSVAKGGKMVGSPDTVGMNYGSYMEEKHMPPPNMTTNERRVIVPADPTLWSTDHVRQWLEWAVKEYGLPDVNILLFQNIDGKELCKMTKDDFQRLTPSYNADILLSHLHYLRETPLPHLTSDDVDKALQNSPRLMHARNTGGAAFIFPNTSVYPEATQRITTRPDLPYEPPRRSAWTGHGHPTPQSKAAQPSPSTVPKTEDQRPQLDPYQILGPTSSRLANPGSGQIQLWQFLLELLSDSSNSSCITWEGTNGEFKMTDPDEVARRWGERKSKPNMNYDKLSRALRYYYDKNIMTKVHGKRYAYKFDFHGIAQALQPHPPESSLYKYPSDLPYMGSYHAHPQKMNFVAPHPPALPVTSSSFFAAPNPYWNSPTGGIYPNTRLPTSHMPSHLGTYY

target: Transcriptional regulator ERG (Homo sapiens) (UniProt P11308); assay: qHTS for Small Molecule Inhibitors of the ERG Ets/DNA interaction; conditions: fluorescence polarization, His-ERG Ets domain / labelled DNA; at 76.9 µM (top of the series); further: % of control where 0% means no effect
Text: The Ets family of proteins is a family of ~30 conserved transcription factors defined by the presence of an ~85 amino acid domain referred to as the Ets domain, which mediates sequence-specific DNA binding to a core DNA element GGAA/T.The Ets family member ERG has been linked to several neoplasms. […] More extensive studies of the effects of over-expression of ERG in prostate cells have recently been carried out and have shown that over-expression of ERG results in increased invasion. […] We will carry out a high throughout screen to identify inhibitors of the interaction between ERG and DNA using a fluorescence polarization (FP) assay with a His-tagged ERG Ets domain and fluorescently-labeled DNA probes to develop small molecule inhibitors of this interaction as probes to test this hypothesis and lay the groundwork for the development of targeted therapies against ERG. NIH Molecular Libraries Probe Production Network [MLPCN] NIH Chemical Genomics Center [NCGC] Grant: NS066464 PI Name: John Bushweller, University of Virgina
1.5 ul of protein solution (1 uM ERG domain in 300mM KCl, 50mM Tris-HCl, 1mM EDTA, 1mM DTT, pH 7.5); 20 nl Control plate and compound library plate; 1.5 ul mixture of 5 nM Fluorescein-DNA and 100nM Texas-615-DNA solution in same buffer as above solution; measure fluorescence polarization sequentially for fluorescein (Excitation = 480 nm, Emission = 535s, 535p nm) and Texas red (Excitation = 555 nm, Emission = 632s, 632p nm).

Compound	FP activity, negative = inhibition
CCOC(=O)c1ccc(NC(=O)C(C)(CCl)SC)cc1 (stereo not drawn)	inactive: -3.76%
O=C(OC1CN2CCC1CC2)c1cccc([N+](=O)[O-])c1 (stereo not drawn)	inactive: 0.671%
CCCCOc1ccc(C(=O)NCC2(N3CCCCC3)CCCCC2)cc1OC	inactive: -5.09%
Cc1cc(SC(NC(=O)c2ccccc2)C(Cl)(Cl)Cl)nc(C(C)C)n1 (stereo not drawn)	inactive: 1.88%
CC1CCNP(=O)(N(CCCl)CCCl)O1 (stereo not drawn)	inactive: 9.18%
CCOC(=O)Nc1ccc([As](=O)(O)O)c(O)c1	inactive: 11.1%
O=[N+]([O-])c1ccc(Nc2ccc(Oc3ccc([N+](=O)[O-])cc3[N+](=O)[O-])cc2)c([N+](=O)[O-])c1	inactive: -2.21%
O=P(Nc1ccccn1)(c1cccc2ccccc12)c1cccc2ccccc12	inactive: 10.1%
Cc1cc(SC(NC=O)C(Cl)(Cl)Cl)ncn1 (stereo not drawn)	inactive: -11.9%
CCOC(=O)Nc1cccc([As](=O)(O)O)c1	inactive: -4.11%
O=C(/C=C/c1ccccc1)OC1CN2CCC1CC2 (stereo not drawn)	inactive: 7.16%
CCCC1OP(=O)(Nc2ccccc2)OCC1CC (stereo not drawn)	inactive: 7.78%
CN(C)C1(CNC(=O)c2ccc(S(C)(=O)=O)cc2)CCCCC1	inactive: -1.96%
CC1CCC(C(C)C)C(OP(=O)(Nc2ccccn2)c2ccccc2)C1 (stereo not drawn)	inactive: 2.92%
Cc1ccc(C(=O)OC2CN3CCC2CC3)cc1 (stereo not drawn)	inactive: 8.43%
O=P1(Nc2ccc(Br)cn2)COc2ccccc2OC1	inactive: -1.09%
NS(=O)(=O)c1cccc(NC(=O)COC(=O)C(O)(c2ccccc2)c2ccccc2)c1	inactive: -2.61%
O=[As](O)(c1cccs1)c1cccs1	inactive: -6.35%
Cc1ccc(OCC(=O)OC2CN3CCC2CC3)cc1 (stereo not drawn)	inactive: 11.5%
Nc1cccc([As](=O)(O)c2ccccc2)c1	inactive: -2.04%
O=P1(Nc2ncccn2)COc2ccccc2OC1	inactive: -5.9%
Clc1n[nH]nc1-c1nn[nH][15n]1	inactive: 9.16%
CC(C)(C)C(=O)NC(Sc1ncccn1)C(Cl)(Cl)Cl (stereo not drawn)	inactive: 3.52%
CN(CCCl)Cc1cc(Cl)c(NC2=NCCN2)c(Cl)c1	inactive: 1.58%
CCOP(=O)(Nc1ccc(C)cn1)OCC	inactive: 7.59%
O=P1(Nc2ccccn2)COc2ccccc2OC1	inactive: -3.07%
CCC1=CC2Cc3nc4ccc(Cl)cc4c(N)c3C(C1)C2 (stereo not drawn)	inactive: -7.78%

Compound	FP activity, negative = inhibition
CCOP(=O)(NC(=NC(C)c1ccccc1)NC(C)c1ccccc1)OCC (stereo not drawn)	inactive: -2.79%
CC1(CBr)Cn2c(nc3ccccc3c2=O)S1 (stereo not drawn)	inactive: -1.22%
CC(C)/C=N\N=C(\N)N[N+](=O)[O-]	inactive: 9.98%
CN(C(=O)Cc1ccc(Cl)c(Cl)c1)[C@@H]1CCCC[C@H]1N1CCCC1	inactive: 3.64%
COc1ccccc1CNC(=O)COC(=O)C(O)(c1ccccc1)c1ccccc1	inactive: 1.74%
O=[As](O)(c1cccc(O)c1)c1cccc(O)c1	inactive: 106%
Cc1cccc(OCC(=O)OC2CN3CCC2CC3)c1 (stereo not drawn)	inactive: -0.0251%
COc1cc(C(=O)NCC2(N3CCOCC3)CCCCC2)cc(Cl)c1OC(C)C	inactive: 12.9%
O=[As](O)(O)c1cccnc1	inactive: -11%
CS(=O)(=O)c1ccc(Cl)c(NC(=O)COC(=O)C(O)(c2ccccc2)c2ccccc2)c1	inactive: 8.94%
O=C(OC1CN2CCC1CC2)c1ccc(Cl)cc1 (stereo not drawn)	inactive: -10.4%
COc1cc(C2NCCC3(OCCO3)C2(C)C)cc(OC)c1OC (stereo not drawn)	inactive: 2.27%
CCOP(=O)(Nc1cccc2ccccc12)OCC	inactive: -0.0756%
CCCOP(=S)(Nc1nc(N)cc(=O)[nH]1)OCCC	inactive: 2.59%
Nc1cccc2c([As](=O)(O)O)cccc12	inactive: -1.57%
Cc1ccc(NCCc2c([N+](=O)[O-])cc([N+](=O)[O-])cc2[N+](=O)[O-])cc1	inactive: 41.5%
Nc1ccccc1[As](=O)(O)c1ccccc1	inactive: -4.74%
O=C(O)COc1ccc([As](=O)(O)O)cc1[N+](=O)[O-]	inactive: 4.87%
CS(=O)(=O)c1cc([N+](=O)[O-])c2no[n+]([O-])c2c1	inactive: -3.61%
O=P(Nc1nccs1)(Oc1ccccc1)Oc1ccccc1	inactive: -0.613%
CN(C)C(=O)c1cc([N+](=O)[O-])cc2c1-c1c(cc([N+](=O)[O-])cc1[N+](=O)[O-])C2=O	inactive: -5.73%
O=[N+]([O-])c1ccc2c(c1)nnn2O	inactive: 7.38%
CN(C(=O)Cc1ccc(Cl)c(Cl)c1)[C@H]1CC[C@@]2(CCCO2)C[C@@H]1N1CCCC1	inactive: 1.45%
N#CCCN(C(=O)COC(=O)C(O)(c1ccccc1)c1ccccc1)c1ccc(F)cc1	inactive: 16%
CN(C(=O)Cc1ccccc1)[C@@H]1CC[C@]2(CCCO2)C[C@H]1N1CCCC1	inactive: -0.458%
NC(=O)Nc1ccc([As](=O)(O)O)cc1	inactive: 8.6%
